Only a part is listed here, and it is no random draw. Some salts and complexes are drawn in separate pieces, as the source files them; their charges need not balance. Active and inactive are the calls of the source. The call rests on the fitted dose curve; in most records, active means well fitted inhibition curve with a large enough effect; inconclusive means small, poorly fitted or top-dose-only effect, or effect the other way, or another doubt; inactive means no such curve, though single readings can be large or run the other way.

This assay deals with Lysosomal alpha-glucosidase (Homo sapiens) (UniProt P10253). Kind of assay: qHTS Assay for Inhibitors and Activators of Human alpha-Glucosidase From Spleen Homogenate.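 Further: 0% = enzyme with vehicle and -100% = no enzyme basal signal.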 The settings on record: 4-MU-alpha-glucoside fluorescence; at 79.9 µM (top of the series). The source says:
NIH Chemical Genomics Center [NCGC] NIH Molecular Libraries Probe Production Centers Network [MLPCN] MLPCN Grant: R03 MH084841-01 Assay Submitter (PI): Wei Zheng NCGC Assay Overview: Alpha-glucosidase is responsible for the hydrolysis of terminal, non-reducing 1,4-linked alpha-D-glucose residues, which releases alpha-D-glucose. It is a lysosomal hydrolase that is required for the degradation of a small percentage (1-3%) of cellular glycogen in humans. Deficiency of this enzyme results in glycogen-storage disease type II (GSDII), also referred to as Pompe disease, an autosomal recessive disorder. Structurally normal glycogen is accumulated in the lysosomes and cytoplasm in affected patients, primarily in muscle tissues. Excessive glycogen storage within lysosomes may interrupt normal functioning of other organelles and leads to cellular injury. In turn, this leads to enlargement and dysfunction of the entire organ involved (eg: cardiomyopathy and muscle weakness). It has been reported that the improper folding and trafficking of alpha-glucosidase resulting from genetic mutations may account for a significant number of Pompe patients. […] We optimized this alpha-glucosidase assay in 1536-well plate format for identification of novel small molecule inhibitors or activators with structures other than the sugar analogs in order to develop new pharmacological chaperones. In particular, this assay is directed towards discovering compounds active in a more natural setting, tissue homogenate, that may have been missed by screens of the purified enzyme under more stringent conditions.
NCGC Assay Protocol Summary: This is a fluorogenic enzyme assay with 4-methylumbelliferyl-alpha-D-glucopyranoside as the substrate and human spleen homogenate containing alpha-glucosidase as the enzyme preparation. Upon hydrolysis of this fluorogenic substrate, the resulting product, 4-methylumbelliferone (which excites at 365 nm and emits at 440 nm) can be detected by a fluorescence plate reader. Data were normalized to the controls for basal activity (without enzyme) and 100% activity (with enzyme). The AC50 values were determined from concentration-response data modeled with the standard Hill equation. Assay buffer: 50 mM citric acid (titrated with potassium phosphate to pH 5.0), 0.01% Tween-20 (pH 5.0 is an optimal condition for this enzyme assay) 1536-well assay protocol for the alpha-glucosidase from human spleen homogenate: (1) Add 2 ul/well spleen homogenate (1 ug) (2) Add 23 nL compounds in DMSO solution. The final titration was 0.5 nM to 58 uM. (3) Add 2 ul of substrate (1 mM final) (4) Incubate at 37 C for 40 min (5) Add 2 ul stop solution (1M NaOH and 1M Glycine mixture, pH 10) (6) Detect the assay plate in a ViewLux plate reader (PerkinElmer) with Ex=365 nm and Em=440nm. Keywords: Alpha-glucosidase, Pompe Disease, pharmacological chaperone, chaperone therapy, high throughput screening, alpha-glucosidase inhibitor, MLSMR, MLSCN, NIH Roadmap, qHTS and NCGC
On to `COc1ccc(C(=O)NCC2(N3CCOCC3)CCCCC2)cc1OC`, for which the activity change, negative = inhibition is inactive: -1.64%.
As to `N/C(=N\O)c1c(N)no[n+]1[O-]`, the activity change, negative = inhibition was inactive: 3.92%.
As to `O=C(O)c1cccc(Nc2c([N+](=O)[O-])cc([N+](=O)[O-])cc2[N+](=O)[O-])c1`, the activity change, negative = inhibition is inactive: -17.9%.
In the case of `O=C(OC1CN2CCC1CC2)C1c2ccccc2C=Cc2ccccc21` (stereo not drawn), the activity change, negative = inhibition is inactive: -0.534%.
The same measure for `N#Cc1ccc(C(=O)NCC2(N3CCCCC3)CCCCC2)cc1`: inactive: 5.03%; for `CCOC(=O)C(CC)C1=NC(C)(C)Cc2ccccc21.O=[N+]([O-])c1cc([N+](=O)[O-])c(O)c([N+](=O)[O-])c1` (stereo not drawn): inactive: 5.27%.
The same measure for `ClCCOP(OCCCl)OCCCl`: inactive: -4.05%; for `c1ccc(CN2CCC(Nc3ccccc3)CC2)cc1`: inactive: -7.07%; for `Fc1ccccc1NC1CCN(Cc2ccccc2)CC1`: inactive: -4.26%.
With `CCN1CCC(Nc2cccc(F)c2)CC1`, the activity change, negative = inhibition was inactive: 3.15%.
The same measure for `CN(C)c1ccc(C(=O)NCC2(N3CCCCC3)CCCCC2)cc1`: inactive: 0.222%; for `CCOc1ncccc1C(=O)NCC1(N2CCOCC2)CCCCC1`: inactive: -5.75%.
As to `COc1cc(OC)cc(C(=O)NCC2(N3CCOCC3)CCCCC2)c1`, the activity change, negative = inhibition was inactive: -6.87%.
On to `CCC(CO)(C(=O)OC1CN2CCC1CC2)c1ccccc1` (stereo not drawn), for which the activity change, negative = inhibition is inactive: 2.42%.
The same measure for `CCCOc1ccc(C)cc1CN(CCCl)CCCl`: inactive: -17.4%; for `COc1ccc(C(=O)NCC2(N3CCCCC3)CCCCC2)c(OC)c1OC`: inactive: 1.26%; for `O=C(NCC1(N2CCOCC2)CCCCC1)c1cc2ccccc2o1`: inactive: -1.6%.
Regarding `O=C(OC1CN2CCC1CC2)C1c2ccccc2Oc2ccccc21` (stereo not drawn), the activity change, negative = inhibition is inactive: 3.55%.
Regarding `N#CC1(Nc2ccccc2)CCN(Cc2ccccc2)CC1`, the activity change, negative = inhibition was inactive: 0.281%.
The same measure for `CCOC(=O)N1CCC(Nc2ccc(OC)cc2)CC1`: inactive: -5.83%.
Turning to `CCOc1ccc(C)cc1CN(CCCl)CCCl`, the activity change, negative = inhibition is inactive: 1.12%.
As for `COc1ccc(NC2CCN(CCc3ccccc3)CC2)c(OC)c1`, the activity change, negative = inhibition is inactive: -5.96%.
The same measure for `Cc1ccc(OCC(C)C)c(CN(CCCl)CCCl)c1`: inactive: -5%; for `N#CC1(Nc2ccccc2)CCN(CCc2ccccc2)CC1`: inactive: 2.36%.
`O=[N+]([O-])c1cc([N+](=O)[O-])c(NCC2CCS(=O)(=O)C2)c([N+](=O)[O-])c1` (stereo not drawn): the activity change, negative = inhibition was inactive: 1.99%.
The same measure for `O=C(NCC1(N2CCOCC2)CCCCC1)c1cc(=O)[nH]c2ccccc12`: inactive: -12.2%; for `CN1CCN(CCOC(=O)C(O)(c2ccccc2)c2ccccc2)CC1`: inactive: 1.95%; for `CC(C)c1ccc(NC2CCN(C(=O)OC(C)(C)C)CC2)cc1`: inactive: -15.3%.
For the molecule `CN(C)c1cccc(C(=O)NCC2(N3CCCCC3)CCCCC2)c1`, the activity change, negative = inhibition was inactive: -16.4%.
Regarding `COc1ccc(CN(CCCl)CCCl)cc1Cl`, the activity change, negative = inhibition was inactive: -1.99%.
The same measure for `CCOP(=O)(Cl)Cl`: inactive: 4.5%; for `O=C(OC1CN2CCC1CC2)c1ccc([N+](=O)[O-])cc1` (stereo not drawn): inactive: -4.26%.
Regarding `COc1ccc2c(c1O)-c1c(O)c(OC)cc3c1[C@H](C2)[N+](C)(C)CC3.O=[N+]([O-])c1cc([N+](=O)[O-])c([O-])c([N+](=O)[O-])c1[O-]`, the activity change, negative = inhibition was inactive: -2.41%.

Values taken from PubChem BioAssay AID2112 (National Center for Advancing Translational Sciences (NCATS), 2009).
